Assay outcomes from PubChem BioAssay.
Rows were chosen to be rich in hits. Some 2.2% of all compounds tested hit in one or more screens of this group.
SIRT5 inh = SIRT5 desuccinylase inhibitors, primary screen, biochemical, fluorescence imaging, single point, set 5; inhibition, % at 15 µM; NAD-dependent protein deacylase sirtuin-5, mitochondrial (Homo sapiens), Q9NXA8; Purified SirT5, succinyl-peptide AMC, trypsin-coupled fluorescence; 1.1% of 330,000 active; AID 652115, 2013; in the data active = inhibition above about 15%
ERp5 block = inhibitors of ERp5-driven insulin aggregation, primary screen, biochemical, turbidity, absorbance 650 nm, single point. Protein disulfide-isomerase A6 (Homo sapiens), Q15084. inhibition, % at 9.99 µM. 90 min. 0.05% of 350,000 active;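 active = mean replicate inhibition above about 25%, with every replicate also reaching it, limit read from the data, passing the limit was not always enough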
FGF22 binding = binders of human FGF22 protein, primary screen, FGF22 synaptogenesis inhibitor project, biophysical, thermal shift, single point | activity (Tm shift, normalised), % at 9.99 µM | 1.5% of 340,000 active | Fibroblast growth factor 22 (Homo sapiens), Q9HCT0 | recombinant FGF22 thermal shift, SYPRO orange fluorescence; percent of sucrose octasulfate shift, DMSO zero;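 active = mean Tm shift, scaled 0 neutral to 100 positive control, at about 1.3% or above, every replicate too, limit read from the data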
UUG fidelity = alters start codon recognition fidelity in yeast | S. cerevisiae UUG-firefly luciferase reporter, luminescence/redox ratio | activity score, % at 18.7 µM | hit rate 0.13% among 350,000 | AID 602363;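 active means replicate mean at a twofold rise or more, about +100% in these data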;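 further: firefly luciferase made from a UUG start codon reports start codon fidelity; reporter light over untreated wells divided by growth signal over untreated wells; some hits fall short of that in this replicate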
PDI turbidity = inhibitors of human PDI, primary screen, biochemical, turbidity, single point, plate reader | inhibition, % at 10 µM | Protein disulfide-isomerase (Homo sapiens), P07237 | PDI insulin aggregation turbidity, A650, 90 min | AID 588391, 2011 | 0.052% of 350,000 active;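 active = mean inhibition across replicates of 30% or more, whatever share of single replicates reach that level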
S100A4 inh HTS = inhibitors of S100A4-myosin IIA peptide binding, primary screen, biochemical, fluorescence polarization, TAMRA-MyoIIA peptide | AID 652163, 2013 | Protein S100-A4 (Homo sapiens), P26447 | inhibition, % at 10.7 µM | 0.14% of 360,000 active;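 active = mean inhibition of at least 70% across replicates, with every replicate also reaching that level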
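System – human S100A4 monomer protein, biochemical binding assay · Buffer or medium – Calcium-containing HEPES buffer, pH 7.2 · Timing – 5 min between mix addition and reading · Also added – TAMRA-labelled myosin IIA heavy-chain peptide probe, 5 nM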
An asterisk follows results filed as active; nt = no result given.

Sequences of proteins named here, by UniProt entry; tags and fusion partners are left off.
Protein disulfide-isomerase A6 (Homo sapiens), Q15084, UniProt Q15084, whole entry, looked up: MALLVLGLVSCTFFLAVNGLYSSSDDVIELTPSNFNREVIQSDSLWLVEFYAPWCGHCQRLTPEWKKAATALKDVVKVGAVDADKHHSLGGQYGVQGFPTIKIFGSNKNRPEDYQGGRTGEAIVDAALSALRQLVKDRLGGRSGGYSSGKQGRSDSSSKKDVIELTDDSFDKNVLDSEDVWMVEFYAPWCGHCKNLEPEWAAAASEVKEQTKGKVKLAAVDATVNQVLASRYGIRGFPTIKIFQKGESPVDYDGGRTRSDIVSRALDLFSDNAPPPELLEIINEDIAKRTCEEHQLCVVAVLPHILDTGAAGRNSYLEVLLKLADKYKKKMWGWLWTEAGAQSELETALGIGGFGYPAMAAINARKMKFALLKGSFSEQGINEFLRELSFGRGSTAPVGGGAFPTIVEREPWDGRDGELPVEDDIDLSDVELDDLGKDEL

SMILES | PDI turbidity | S100A4 inh HTS | SIRT5 inh | ERp5 block | FGF22 binding | UUG fidelity
O=C(NC1CCCC1)[C@H]1[C@H](CO)[C@H]2Cn3c(ccc(-c4ccccc4)c3=O)[C@@H]1N2CC1CC1 | nt | 1.2 | -3.4 | 1.2 | nt | nt
COC(=O)N/N=C/c1ccc([N+](=O)[O-])s1 | 16.2 | nt | nt | nt | nt | -22.4
COc1ccccc1NC(=O)C(=O)N/N=C/c1ccc([N+](=O)[O-])s1 | 1.3 | -5.1 | -3.4 | 2.6 | 44.2* | -32.7
Cc1ccc(S(=O)(=O)NCCC(=O)Nc2ccc(Cl)c(Cl)c2)cc1C | 0.4 | -1.9 | -2.1 | -5.9 | 46.6* | nt
O=C(COC(=O)/C=C/c1cccc(Br)c1)NC1CCCC1 | -3.9 | -2.5 | -1.8 | -5.4 | -0.2 | 0.4
NC(=O)COC(=O)/C=C/c1cccc(Br)c1 | 11.2 | -2.3 | -0.2 | -1.9 | 43.0* | nt
CCS(=O)(=O)N[C@H]1CC[C@H](CC(=O)N2CCCCC2)O[C@H]1CO | nt | 1.3 | 1.7 | 7.1 | -0.2 | nt
CCN(CC)C(=O)c1nc[nH]c1C(=O)N1CCC(C)CC1 | -0.5 | -7.1 | 0.0 | -0.5 | 9.1* | -10.1
O=C(C[C@@H]1CC[C@@H](NC(=O)c2ccncc2)[C@H](CO)O1)Nc1ccc(-c2ccccc2)cc1 | nt | 2.7 | -1.9 | -4.0 | nt | nt
Cc1ccc(-c2nnc3n2CCCCC3)cc1 | 16.5 | nt | nt | nt | nt | -17.2
O=C1Nc2ccccc2C1=Nc1ccc(-c2nnc3n2CCCCC3)cc1 | 4.9 | -8.0 | nt | 14.4 | 42.9* | -17.5
C[C@@H]1CCCCO[C@@H](CN(C)CC2CCCCC2)[C@@H](C)CN([C@H](C)CO)C(=O)c2cc(NC(=O)NC3CCCCC3)ccc2O1 | nt | nt | nt | nt | 0.5 | 1.5
Nc1nc2ccccc2[nH]1 | -1.9 | 0.7 | 0.7 | -2.0 | 0.0 | -22.3
Nc1nc2ccc(Cl)cc2[nH]1 | -2.4 | 1.3 | nt | 7.6 | 43.2* | -9.3
Cc1cc2ncc(C(=O)Nc3ccccc3)c(C)n2n1 | 2.1 | nt | nt | nt | nt | nt
COC(=O)c1sccc1NC(=O)c1cnc2cc(C)nn2c1C | -2.5 | -5.1 | -0.3 | -11.4 | 42.9* | nt
CC[n+]1c(/C=C(\C)OC)sc2ccccc21 | -4.6 | -4.9 | 0.2 | -1.6 | 0.1 | nt
CC[n+]1c(/C=C/C=C/N(C(C)=O)c2ccccc2)sc2cc(OC)ccc21 | nt | 199.4* | -3.3 | -2.1 | -0.2 | nt
O=C(Nc1ccc(N2CCCC2)c(Cl)c1)c1ccc([N+](=O)[O-])o1 | 0.6 | -9.5 | -0.2 | 1.9 | 43.4* | nt
COc1cccc(-c2ccc([C@@H]3[C@H](CO)N4CCCCN(C(=O)NC(C)C)C[C@@H]34)cc2)c1 | nt | nt | -3.7 | 2.4 | nt | -9.1
C[C@@H]1CCCCO[C@H](CN(C)Cc2ccc(C(F)(F)F)cc2)[C@@H](C)CN([C@H](C)CO)C(=O)c2cc(NS(=O)(=O)c3ccc(F)cc3)ccc2O1 | nt | 0.5 | 1.6 | 1.2 | 0.3 | -0.5
C[C@@H]1CCCCO[C@@H](CN(C)Cc2ccc(C(F)(F)F)cc2)[C@H](C)CN([C@@H](C)CO)C(=O)c2cc(NS(=O)(=O)c3ccc(F)cc3)ccc2O1 | nt | -24.9 | 19.0* | 6.4 | -0.3 | 8.1
C[C@H]1CCCCO[C@H](CN(C)Cc2ccc(C(F)(F)F)cc2)[C@@H](C)CN([C@@H](C)CO)C(=O)c2cc(NS(=O)(=O)c3ccc(Cl)cc3)ccc2O1 | nt | -2.6 | 19.1* | -6.0 | -0.5 | 13.3
C[C@@H]1CN([C@@H](C)CO)C(=O)c2cc(NS(=O)(=O)c3ccc(F)cc3)ccc2O[C@@H](C)CCCCO[C@H]1CN(C)Cc1ccc(C(F)(F)F)cc1 | nt | -7.0 | 27.9* | -2.8 | -0.4 | 10.0
C[C@@H]1CCCCO[C@@H](CN(C)Cc2ccc(C(F)(F)F)cc2)[C@@H](C)CN([C@@H](C)CO)C(=O)c2cc(NS(=O)(=O)c3ccc(F)cc3)ccc2O1 | nt | -32.2 | 11.9 | -7.5 | -0.1 | 12.0
COc1ccccc1-c1ccc2c(c1)O[C@@H](CN(C)C(=O)c1cccnc1)[C@@H](C)CN([C@H](C)CO)S2(=O)=O | nt | -30.9 | -8.4 | -1.0 | -0.2 | nt
CC1(C)CC(=O)c2cnc3c(C#N)cnn3c2C1 | 2.2 | -5.8 | -3.7 | -3.7 | 43.7* | nt
CN(C)S(=O)(=O)c1cc(C(=O)NCc2ccccc2)c(Cl)cc1Cl | 0.9 | -3.0 | -1.2 | -0.6 | 42.9* | -20.7
C[C@H](CO)N1C[C@H](C)[C@@H](CN(C)S(=O)(=O)c2cn(C)cn2)Oc2ccc(NC(=O)Nc3cccc4ccccc34)cc2CC1=O | nt | -3.1 | 6.4 | 8.8 | -0.1 | 20.7
CCNC(=S)N/N=C/c1cc(C)n(-c2ccc(Cl)cc2)c1C | 3.5 | -2.7 | 15.5* | 1.4 | -0.1 | nt

Printed as active in S100A4 inh HTS, of those listed so far:
molecule	PDI turbidity	S100A4 inh HTS	SIRT5 inh	ERp5 block	UUG fidelity
CC[n+]1c(/C=C/C=C/N(C(C)=O)c2ccccc2)sc2cc(OC)ccc21	nt	199.4*	-3.3	-2.1	nt

Next section.
SMILES | PDI turbidity | S100A4 inh HTS | SIRT5 inh | ERp5 block | FGF22 binding | UUG fidelity
CNC(=S)NNC(=O)c1noc(C)c1C(=O)N1CCN(C(c2ccccc2)c2ccccc2)CC1 | 0.4 | 0.6 | 1.6 | -0.9 | 43.6* | nt
CC(C)c1onc(C(=O)N2CCN(C(c3ccccc3)c3ccccc3)CC2)c1[N+](=O)[O-] | nt | -4.5 | -3.1 | -1.4 | -0.1 | -1.4
COc1ccccc1C(O)c1ncc(-c2cccc3ccccc23)[nH]1 (stereo unspecified) | -4.3 | -2.8 | nt | 6.3 | 43.2* | -21.9
COc1ccc(C(CNC(=O)C(CC(C)C)NS(=O)(=O)c2ccc(C)cc2)N2CCOCC2)cc1 (stereo unspecified) | 1.4 | 10.7 | 21.8* | 2.2 | 0.4 | -5.7
CSc1nc2ccc(NC(=O)C3=NNC(=O)CC3)cc2s1 | -2.9 | 0.3 | 3.7 | 0.2 | 43.3* | nt
O=C(Cc1cccs1)Nc1cccc([N+](=O)[O-])c1 | 1.1 | -0.8 | -3.2 | -2.3 | 43.4* | nt
Cc1c(Cl)cccc1NC(=O)Cc1cccs1 | -8.3 | -0.2 | 56.9* | 1.6 | -0.1 | -0.5
CC(C)CNC(CC(=O)Nc1cccc([N+](=O)[O-])c1)C(=O)O (stereo unspecified) | 2.5 | nt | nt | nt | nt | nt
CC(CC(=O)O)CC(=O)Nc1cccc([N+](=O)[O-])c1 (stereo unspecified) | 3.0 | -4.7 | -0.7 | 1.4 | 43.1* | nt
Nc1nc(SCC(=O)Nc2cccc([N+](=O)[O-])c2)n[nH]1 | 18.1 | 1.7 | 0.9 | 0.2 | -0.2 | -23.2
O=C(CCc1n[nH]c(=O)[nH]c1=O)Nc1cccc([N+](=O)[O-])c1 | 6.3 | -10.0 | 2.7 | -0.4 | 43.7* | nt
O=C(Cc1ccccc1)Nc1cccc([N+](=O)[O-])c1 | -12.5 | -2.7 | -8.8 | -2.0 | -0.3 | 1.1
O=C(C[C@@H]1CC[C@H](NC(=O)Cc2ccccn2)[C@H](CO)O1)NCCCN1CCOCC1 | nt | -0.1 | 0.1 | 2.8 | -0.1 | -18.4

2 compounds from above, reduced to SIRT5 inh and ERp5 block.
mol	SIRT5 inh	ERp5 block
CSc1nc2ccc(NC(=O)C3=NNC(=O)CC3)cc2s1	3.7	0.2
CC(C)c1onc(C(=O)N2CCN(C(c3ccccc3)c3ccccc3)CC2)c1[N+](=O)[O-]	-3.1	-1.4

Filtered by structure: the compounds so far with a COOH group.
SMILES | PDI turbidity | S100A4 inh HTS | SIRT5 inh | ERp5 block | FGF22 binding | UUG fidelity
CC(C)CNC(CC(=O)Nc1cccc([N+](=O)[O-])c1)C(=O)O (stereo unspecified) | 2.5 | nt | nt | nt | nt | nt
CC(CC(=O)O)CC(=O)Nc1cccc([N+](=O)[O-])c1 (stereo unspecified) | 3.0 | -4.7 | -0.7 | 1.4 | 43.1* | nt
